In PubChem BioAssay AID717 (Columbia University Molecular Screening Center, 2007):
Only a part is listed here, and it is no random draw. Calls of active or inactive are those of the source. Rule as the data show it: active = activation above about 37%; inactive = the rest.

Protein sequences, listed by entry. Tags and fused reporters are not part of them.
UniProt P34913, whole entry: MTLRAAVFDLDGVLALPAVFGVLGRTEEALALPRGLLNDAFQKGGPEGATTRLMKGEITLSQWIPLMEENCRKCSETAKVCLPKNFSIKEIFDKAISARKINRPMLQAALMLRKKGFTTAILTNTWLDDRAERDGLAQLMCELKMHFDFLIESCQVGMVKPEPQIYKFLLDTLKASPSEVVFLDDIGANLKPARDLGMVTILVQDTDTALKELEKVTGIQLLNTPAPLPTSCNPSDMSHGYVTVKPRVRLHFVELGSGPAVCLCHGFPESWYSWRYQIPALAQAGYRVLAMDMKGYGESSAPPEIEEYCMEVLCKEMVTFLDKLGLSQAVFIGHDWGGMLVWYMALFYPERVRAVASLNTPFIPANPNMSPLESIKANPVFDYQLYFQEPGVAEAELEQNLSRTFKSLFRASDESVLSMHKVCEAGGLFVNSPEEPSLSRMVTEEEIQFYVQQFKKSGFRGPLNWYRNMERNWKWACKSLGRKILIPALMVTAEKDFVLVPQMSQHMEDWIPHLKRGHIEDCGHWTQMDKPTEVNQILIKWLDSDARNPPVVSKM

These compounds were tested against Bifunctional epoxide hydrolase 2 (Homo sapiens) (UniProt P34913) (assay: sEH enzyme activity enhancers – biochemical, human sEH, primary screen (AID 717)). Conditions: purified human sEH enzymatic activity, activator screen; at 2 µM; hits give high values.
For `CCN(CC)CC(O)COC(=O)C(O)(c1ccccc1)C1CCCCC1` (centres undefined), the activation was inactive: 12.8%. In the case of `COc1ccccc1OP(C)(=O)Nc1c(C)n(C)n(-c2ccccc2)c1=O` (centres undefined), the activation is reported as inactive: -4.1%. For `CP(=O)(Oc1ccccc1)N1CCOC1=O` (centres undefined), the activation was inactive: 3.7%. With `CC(C)(C)c1ccc(OP(C)(=O)O)cc1` the activation was inactive: -2.1%. In the case of `CP(=O)(Nc1ccc(Cl)cc1)Oc1ccc(F)cc1` (centres undefined), the activation is reported as inactive: -7.6%. `CP(=O)(OC12CC3CC(CC(C3)C1)C2)OC12CC3CC(CC(C3)C1)C2` was tested, and the activation was inactive: 12.2%. In the case of `COc1ccccc1OP(C)(=O)Nc1ccc(C)c(C)c1` (centres undefined), the activation is reported as inactive: 6.8%. In the case of `Cc1nc2ccc3ccccc3c2o1.O=[N+]([O-])c1cc([N+](=O)[O-])c(O)c([N+](=O)[O-])c1`, the activation is reported as inactive: 6.5%. In the case of `COc1ccc(OP(C)(=O)Nc2ccccn2)cc1` (centres undefined), the activation is reported as inactive: 0.7%. With `CN(C)CCOC(=O)C(O)(c1ccccc1)C1CCCC1` (centres undefined) the activation was inactive: 23.2%. For `Cc1c(NP(C)(=O)Oc2ccc(C(C)C)cc2)c(=O)n(-c2ccccc2)n1C` (centres undefined), the activation was inactive: -7.5%. With `CP(=O)(Nc1ccccn1)Oc1ccccc1` (centres undefined) the activation was inactive: -7.4%. `CCc1ccc(OP(C)(=O)O)cc1` was tested, and the activation was inactive: -5.6%. For `CP(=O)(Nc1ccccc1F)Oc1ccccc1` (centres undefined), the activation was inactive: 2.7%. `CCN(CC)CCCOC(=O)C(O)(c1ccccc1)C1CCCCC1` (centres undefined) was tested, and the activation was inactive: -3.5%. `CP(=O)(Nc1ccccc1)Oc1ccc(F)cc1` (centres undefined) was tested, and the activation was inactive: 10.9%. `COc1ccc(OP(C)(=O)Nc2cccc(Br)c2)cc1` (centres undefined) was tested, and the activation was inactive: -4.9%. With `CN(C)CCOC(=O)C(O)(c1ccccc1)C1CCCCC1` (centres undefined) the activation was inactive: -12.1%. For `CCOP(C)(=S)SCC(=O)NC(C)(CC)C(=O)O` (centres undefined), the activation was inactive: -1.3%. `CP(=O)(Nc1ccc2c(c1)OCCO2)Oc1ccccc1` (centres undefined) was tested, and the activation was inactive: 2.7%. For `Cc1nc2ccc3ccccc3c2s1.O=[N+]([O-])c1cc([N+](=O)[O-])c(O)c([N+](=O)[O-])c1`, the activation was inactive: -11.2%. For `COc1ccccc1OP(C)(=O)Nc1c(C)cccc1C` (centres undefined), the activation was inactive: -6%. For `Cc1cc(C)cc(OP(C)(=O)Nc2ccc(C)cc2C)c1` (centres undefined), the activation was inactive: -35.5%. For `Cc1ccc(C)c(NP(C)(=O)Oc2ccccc2)c1` (centres undefined), the activation was inactive: 24.6%. In the case of `Cc1cc(C)cc(OP(C)(=O)Nc2ccccn2)c1` (centres undefined), the activation is reported as inactive: -11.1%. With `COc1ccc(OP(C)(=O)Nc2cccc(F)c2)cc1` (centres undefined) the activation was inactive: -2.6%. `CP(=S)(Nn1cnnc1)Oc1ccccc1` (centres undefined) was tested, and the activation was inactive: -0.6%. With `CP(=O)(NC(=O)Nc1ccccc1)Oc1ccccc1` (centres undefined) the activation was inactive: 6.8%. For `CP(=O)(Nc1ccccn1)Oc1ccc(Cl)cc1` (centres undefined), the activation was inactive: 0.5%.
